Literature values in US4239778A, “Azaprostanoic acid analogs and their use as inhibitors of platelet aggregation” (priority 1978, dated 1980).

Tested on: cyclooxygenase (bovine seminal vesicles and human platelets)
Details: bovine seminal vesicles vs human platelets; cited from earlier work

SMILES | I50, difference between the two enzyme sources (in words)
CC(=O)Oc1ccccc1C(=O)O [aspirin] | do not differ significantly between the two enzyme sources
COc1ccc2c(c1)c(CC(=O)O)c(C)n2C(=O)c1ccc(Cl)cc1 [indomethacin] | do not differ significantly between the two enzyme sources
